US8796295B2, “Substituted benzamide analogs as mGluR5 negative allosteric modulators and methods of making and using the same” (priority 2009, dated 2014)

By UniProt entry, the sequences of proteins in these tests, tags left out. Residues count along the entry.
UniProt P31424, 21-1203: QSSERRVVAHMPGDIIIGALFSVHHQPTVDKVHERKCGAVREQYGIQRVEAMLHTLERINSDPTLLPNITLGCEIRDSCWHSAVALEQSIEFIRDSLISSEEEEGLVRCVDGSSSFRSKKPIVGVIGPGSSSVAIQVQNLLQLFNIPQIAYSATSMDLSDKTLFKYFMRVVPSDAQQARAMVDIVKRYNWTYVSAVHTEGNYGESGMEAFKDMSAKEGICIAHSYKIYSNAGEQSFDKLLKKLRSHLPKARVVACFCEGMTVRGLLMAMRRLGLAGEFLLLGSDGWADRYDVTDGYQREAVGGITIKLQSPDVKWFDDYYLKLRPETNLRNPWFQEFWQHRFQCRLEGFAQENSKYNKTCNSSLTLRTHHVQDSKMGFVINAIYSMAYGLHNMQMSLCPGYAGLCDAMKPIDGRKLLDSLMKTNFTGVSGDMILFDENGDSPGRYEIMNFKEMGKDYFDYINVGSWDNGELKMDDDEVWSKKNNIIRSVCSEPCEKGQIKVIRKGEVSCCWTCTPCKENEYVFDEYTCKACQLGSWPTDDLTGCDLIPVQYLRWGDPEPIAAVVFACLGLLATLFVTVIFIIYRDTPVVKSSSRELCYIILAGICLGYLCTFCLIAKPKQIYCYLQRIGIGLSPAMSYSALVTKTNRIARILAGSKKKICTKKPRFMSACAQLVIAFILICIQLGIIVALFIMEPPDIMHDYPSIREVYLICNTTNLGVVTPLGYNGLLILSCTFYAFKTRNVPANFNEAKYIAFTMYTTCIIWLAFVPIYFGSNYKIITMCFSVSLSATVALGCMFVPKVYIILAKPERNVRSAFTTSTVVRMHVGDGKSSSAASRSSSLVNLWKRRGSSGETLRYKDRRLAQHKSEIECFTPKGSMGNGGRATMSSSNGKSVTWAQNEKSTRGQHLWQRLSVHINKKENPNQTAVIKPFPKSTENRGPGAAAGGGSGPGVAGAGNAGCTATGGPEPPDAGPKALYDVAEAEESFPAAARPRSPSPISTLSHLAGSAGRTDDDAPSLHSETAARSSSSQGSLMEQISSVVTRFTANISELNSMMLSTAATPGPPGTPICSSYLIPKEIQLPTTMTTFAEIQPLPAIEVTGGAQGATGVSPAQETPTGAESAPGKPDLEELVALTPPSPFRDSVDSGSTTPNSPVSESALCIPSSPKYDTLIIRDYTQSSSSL

Target: rat mGluR5 (Rattus norvegicus (Rat), UniProt P31424)
Test: cell-based

Cc1nc(NC(=O)c2cccc(Oc3cccnc3)c2)nn1C
IC50: > 30 µM
